From patent US9656962B2, “Ring-contracted morphinans and the use thereof” (Purdue Pharma L.P., priority 2013, dated 2017)

Experiments:
[1] = biological target: T1, μ-opioid receptor (Homo sapiens (Human), UniProt P35372); assay: μ-opioid receptor radioligand binding assay ([3H]-diprenorphine); settings: binding affinity
Protocol: μ-Opioid Receptor Binding Assay Procedures: Radioligand dose-displacement binding assays for μ-opioid receptors used 0.3 nM [^3H]-diprenorphine (Perkin Elmer, Shelton, Conn.), with […] membrane protein/well in a final volume of 500 μl binding buffer (10 mM MgCl2, 1 mM EDTA, 5% DMSO, 50 mM HEPES, pH 7.4). Reactions were carried out in the absence or presence of increasing concentrations of unlabeled naloxone. All reactions were conducted in 96-deep well polypropylene plates for 2 hours at room temperature. Binding reactions were terminated by rapid filtration onto 96-well Unifilter GF/C filter plates (Perkin Elmer, Shelton, Conn.), presoaked in 0.5% polyethylenimine using a 96-well tissue harvester (Perkin Elmer, Shelton, Conn.) followed by performing three filtration washes with 500 μl of ice-cold binding buffer. Filter plates were subsequently dried at 50° C. for 2-3 hours. BetaScint scintillation cocktail (Perkin Elmer, Shelton, Conn.) was added (50 μl/well), and plates were counted using a Packard Top-Count for 1 min/well. The data were analyzed using the one-site competition curve fitting functions in GraphPad PRISM™ v. 3.0 or higher (San Diego, Calif.), or an in-house function for one-site competition curve-fitting.

[2] = biological target: δ-opioid receptor (Homo sapiens (Human), UniProt P41143); assay: δ-opioid receptor radioligand binding assay ([3H]-Naltrindole); settings: binding affinity
Protocol: δ-Opioid Receptor Binding Assay Procedures: δ-Opioid Receptor Binding Assay Procedures were conducted as follows. Radioligand dose-displacement assays used 0.3 nM [^3H]-Naltrindole (Perkin Elmer, Shelton, Conn.; 33.0 Ci/mmole) with 5 μg membrane protein (Perkin Elmer, Shelton, Conn.) in a final volume of 500 μl binding buffer (5 mM MgCl2, 5% DMSO, 50 mM Trizma base, pH 7.4). Non-specific binding was determined in the presence of 25 μM unlabeled naloxone. All reactions were performed in 96-deep well polypropylene plates for 1 hour at a temperature of about 25° C. Binding reactions were terminated by rapid filtration onto 96-well Unifilter GF/C filter plates (Perkin Elmer, Shelton, Conn.) presoaked in 0.5% polyethylenimine (Sigma). Harvesting was performed using a 96-well tissue harvester (Perkin Elmer, Shelton, Conn.) followed by five filtration washes with 500 μl ice-cold binding buffer. Filter plates were subsequently dried at 50° C. for 1-2 hours. Fifty μl/well scintillation cocktail (Perkin Elmer, Shelton, Conn.) was added and plates are counted in a Packard Top-Count for 1 min/well.

[3] = biological target: T1, μ-opioid receptor; assay: μ-opioid receptor [35S]GTPγS functional assay, HEK-293 or CHO cells (Table 4); assay type: biochemical; settings: μ GTP, bound given in μM
Protocol: (§1) μ-Opioid Receptor Functional Assay Procedures: [^35S]GTPγS functional assays were conducted using freshly thawed μ-receptor membranes prepared in-house from a cell line expressing recombinant μ opioid receptor in a HEK-293, CHO or U-2 OS cell background, or purchased from a commercial source (Perkin Elmer, Shelton, Conn.; or DiscovRx, Fremont, Calif.). Assay reactions were prepared by sequentially adding the following reagents to binding buffer (100 mM NaCl, 10 mM MgCl2, 20 mM HEPES, pH 7.4) on ice (final concentrations indicated): membrane protein (0.026 mg/mL), saponin ([…]), GDP ([…]) and [^35S]GTPγS (0.20 nM; Perkin Elmer, Shelton, Conn.). The prepared membrane solution (190 μl/well) was transferred to 96-shallow well polypropylene plates containing 10 μl of 20× concentrated stock solutions of the agonist [D-Ala^2, N-methyl-Phe^4 Gly-ol^5]-enkephalin (DAMGO) prepared in dimethyl sulfoxide (DMSO). […] BetaScint scintillation cocktail (Perkin Elmer, Shelton, Conn.) was added (50 μl/well) and plates were counted using a Packard Top-Count for 1 min/well. Data were analyzed using the sigmoidal dose-response curve fitting functions in GraphPad PRISM v. […]
In TABLE 4, activity response of certain Compounds of the Invention to the μ- and κ-opioid receptors was determined as described above for functional assays using HEK-293 or CHO cells.

[4] = biological target: T1, μ-opioid receptor; assay: μ-opioid receptor [35S]GTPγS functional assay, U-2 OS cells (Table 5); assay type: biochemical; settings: μ GTP
Protocol: as §1
The following TABLE 5 provides results on the activity response of certain Compounds of the Invention at the μ- and κ-opioid receptors determined as described above using U-2 OS cells.

## N=C(N)NCCNC(=O)[C@@H]1C[C@]23CCN(CC4CC4)[C@H](Cc4ccc(O)cc42)[C@]3(O)C1 [Compound 6, (2R,3aS,4R,9bS)-12-(cyclopropylmethyl)-N-(2-guanidinoethyl)-3a,8-dihydroxy-1,2,3,3a,4,5-hexahydro-4,9b-(epimino-ethano)cyclopenta[a]naphthalene-2-carboxamide]
[1]
  Ki: 19.7 ± 4.68 nM
[2]
  Ki: 7710 ± 1280 nM
[3]
  EC50: > 20 µM
[4]
  EC50: 16 ± 0.91 nM
